Target: T1, 5-hydroxytryptamine receptor 2C (Rattus norvegicus, UniProt P08909)
T1 sequence (P08909 whole entry): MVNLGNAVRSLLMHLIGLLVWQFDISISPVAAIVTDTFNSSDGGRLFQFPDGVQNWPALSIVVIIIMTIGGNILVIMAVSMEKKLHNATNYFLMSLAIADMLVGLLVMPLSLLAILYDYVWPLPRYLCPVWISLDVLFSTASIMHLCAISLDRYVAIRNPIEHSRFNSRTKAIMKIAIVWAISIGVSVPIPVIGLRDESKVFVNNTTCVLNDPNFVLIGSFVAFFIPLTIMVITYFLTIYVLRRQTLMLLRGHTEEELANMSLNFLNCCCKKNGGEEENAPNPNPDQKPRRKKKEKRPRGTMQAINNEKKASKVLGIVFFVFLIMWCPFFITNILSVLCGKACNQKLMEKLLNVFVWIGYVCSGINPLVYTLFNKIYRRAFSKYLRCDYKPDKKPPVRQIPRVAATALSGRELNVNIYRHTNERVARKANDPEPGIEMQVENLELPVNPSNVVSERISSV
Test: Affinity against 5-hydroxytryptamine 2C receptor in J1 cells transfected with the rat 5-HT2C gene labeled with [3H]mesulergine.
Assay type: cell-based
In short: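 Homogenates of J1 cells carrying the rat 5-HT1C (5-HT2C) gene, labeled with [3H]mesulergine. Competing drug and radioligand incubated at 37 °C for 30 min, then filtered through glass-fiber filters and counted by liquid scintillation. Ki given as mean and SEM of at least two experiments, each done in triplicate.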

SMILES: COc1ccc2[nH]cc(CCN)c2c1 [5-METHOXYTRYPTAMINE]
- Ki: 500 nM

Reference: ChEMBL document CHEMBL1127846, “Influence of amine substituents on 5-HT2A versus 5-HT2C binding of phenylalkyl- and indolylalkylamines” (J Med Chem, 1994)
